From ChEMBL document CHEMBL3868624, “Design, synthesis, biological evaluation, and molecular modeling studies of chalcone-rivastigmine hybrids as cholinesterase inhibitors” (Bioorg Med Chem, 2017)

Amino acid sequences for entries named in this document (tags omitted).
UniProt P06276, whole entry: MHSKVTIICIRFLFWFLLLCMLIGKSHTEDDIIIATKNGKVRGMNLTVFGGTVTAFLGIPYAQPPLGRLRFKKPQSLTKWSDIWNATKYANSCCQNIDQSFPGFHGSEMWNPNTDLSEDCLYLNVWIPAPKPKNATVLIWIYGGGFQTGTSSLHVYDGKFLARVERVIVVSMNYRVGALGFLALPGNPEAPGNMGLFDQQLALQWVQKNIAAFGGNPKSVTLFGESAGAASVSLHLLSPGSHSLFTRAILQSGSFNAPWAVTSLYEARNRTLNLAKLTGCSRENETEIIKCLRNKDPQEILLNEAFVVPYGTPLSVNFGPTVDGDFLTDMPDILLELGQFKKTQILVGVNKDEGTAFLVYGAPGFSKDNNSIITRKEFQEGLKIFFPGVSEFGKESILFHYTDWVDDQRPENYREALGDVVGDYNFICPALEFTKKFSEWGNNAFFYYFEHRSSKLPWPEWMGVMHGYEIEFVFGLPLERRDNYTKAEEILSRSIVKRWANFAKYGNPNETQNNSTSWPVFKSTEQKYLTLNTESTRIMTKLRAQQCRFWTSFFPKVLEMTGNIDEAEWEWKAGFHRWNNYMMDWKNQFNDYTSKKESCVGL

Molecular target: Cholinesterase (Homo sapiens, UniProt P06276)
Experiment: Inhibition of human serum BChE using S-Butyrylthiocholine iodide as substrate preincubated for 15 mins followed by substrate addition by Ellman's method
Method in brief: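 Ellman assay in phosphate buffer pH 8.0 (0.08 M Na₂HPO₄/0.02 M NaH₂PO₄). hAChE at 0.004 U/mL or hBChE at 0.002 U/mL was preincubated with compound for 15 min at 37 °C. DTNB and ATC (hAChE) or BTC (hBChE) were added, each 50 µM final. A412 was read over 5 min and inhibition set against no-compound wells. IC50 from a variable-slope fit, mean ± SD of three independent experiments.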

`CCN(C)C(=O)Oc1cccc([C@H](C)N(C)C)c1` [RIVASTIGMINE] showed an IC50 of 380 nM.
